{
  "source": "patent US8303964B2",
  "about": "“Viable non-toxic gram-negative bacteria” (priority 2006, dated 2012)",
  "tested_on": "KPM22",
  "type": "cell-based, E. coli",
  "description": "The antibiotics used were from Sigma with the exception of cephaloridine, which was obtained from MicroSource Discovery Systems. Antibiotics were chosen based on their varying mode of action and entry into the cell. […] Colonies from LB agar plate were scraped and suspended in media (˜10^4 cells per mL) with varying concentrations of antibiotics. Cultures were incubated with shaking (˜200 rpm) at 37° C. for 18 hours at which point growth was scored by visual inspection.",
  "note": "Read-outs that look alike come from different tables or passages of the source.",
  "data": [
    {"smiles": "CC[C@H]1OC(=O)[C@H](C)[C@@H](O[C@H]2C[C@@](C)(OC)[C@@H](O)[C@H](C)O2)[C@H](C)[C@@H](O[C@@H]2O[C@H](C)C[C@H](N(C)C)[C@H]2O)[C@](C)(O)C[C@@H](C)C(=O)[C@H](C)[C@@H](O)[C@]1(C)O", "note": "[Erythromycin]", "values": [
      {"measurement": "Fold Difference in MIC", "result": 128, "unit": "fold"}
    ]},
    {"smiles": "CO[C@@H]1[C@@H](OC(N)=O)[C@@H](O)[C@H](Oc2ccc3c(O)c(NC(=O)c4ccc(O)c(CC=C(C)C)c4)c(=O)oc3c2C)OC1(C)C", "note": "[Novobiocin]", "values": [
      {"measurement": "Fold Difference in MIC", "setting": "MIC BW30270 versus MIC KPM22", "result": 256, "unit": "fold"}
    ]}
  ]
}
